The structures appear in SMILES notation. The entries are a selection whose mix differs from that of the whole data set. Calls of active or inactive are those of the source. How the source made its calls: active means hit-call score of the fitted dose curve at least 0.9, where 1 is the maximum; inactive means score below 0.9.

This assay is described as follows: ATG_RORE_CIS: Attagene CIS-FACTORIAL HepG2 Assay for human RAR-related Orphan Receptor Element (RORE) (AID 2282959). To be noted: HepG2 Attagene cis-factorial RORE reporter, mRNA; actives raise or lower the signal.
Regarding `CC(C)(C)c1cccc(C(C)(C)C)c1O`, the compound was called inactive.

For `N#Cc1ccc(C(c2ccc(C#N)cc2)n2cncn2)cc1`, the outcome was inactive.

For `CCCCCC=O`, the compound was called inactive.

Broadly, the AC50 is the midpoint of the concentration-response curve, whichever way the signal moves. Turning to `CC(C)(C)c1csc(-c2cc3cc(OCc4ccccc4CC(=O)O)ccc3o2)n1`, the AC50 was active: 16.3 µM. For the compound `CCC(O)CO` (centres undefined), the compound was called inactive.

Regarding `CCCCCCCCCCC(CO)CCCCCCCC` (centres undefined), the call was inactive. With `Cc1c(C)c2c(c(C)c1O)CCC(C)(COc1ccc(CC3SC(=O)NC3=O)cc1)O2` (centres undefined), the AC50 was active: 11 µM. Take `Cc1ncc([N+](=O)[O-])n1C`: the result was inactive.

Consider `Nc1nc2ccc([N+](=O)[O-])cc2s1`, for which the compound was called inactive. For the compound `NCCCN1CCOCC1`, the outcome was inactive. On to `CC(CC=O)c1ccccc1` (centres undefined), for which the compound was classed as inactive.

For `CC(=O)CC(=O)Nc1ccccc1`, the result was inactive. The same measure, in the same setting: under `C1CCSC1` stands “inactive”. Turning to `O=C(Cl)c1cc(C(=O)Cl)cc(C(=O)Cl)c1`, the AC50 is active: 100 µM. With `CCN(CC)CCNc1ccc(CNC=O)c2sc3ccc(OC)cc3c(=O)c12`, the compound was classed as inactive. On the same count and under the same terms, to `O=c1cc(-c2ccccc2)oc2cc(O)cc(O)c12` belongs “inactive”; to `CC(C)CCCCCCOC(=O)CCCCC(=O)OCCCCCCC(C)C`, “inactive”; to `CC1(C)C2=CCCC(C)(C)[C@]23CC[C@H]1C3`, “inactive”. Regarding `Cn1c(=O)[nH]c2ncn(C)c2c1=O`, the compound was classed as inactive. On the same count and under the same terms, under `O=C1CCc2ccccc2O1` stands “inactive”; under `CC/C=C\CCOC(=O)CCCCC`, “inactive”. Still for that read-out and setting: to `COc1ccc(-c2coc3cc(O)ccc3c2=O)cc1` belongs “inactive”. Turning to `Cc1cc(C)nc(NS(=O)(=O)c2ccc(N)cc2)n1`, the compound was called inactive. For `CC1=CCC(C(C)(C)O)CC1` (centres undefined), the result was inactive. Still for that read-out and setting: to `Nc1c(Cl)cc(Cl)cc1[N+](=O)[O-]` belongs “inactive”.

Regarding `COCCc1ccc(OCC(O)CNC(C)C)cc1` (centres undefined), the result was inactive. Still for that read-out and setting: to `Cc1cc(C(C)(C)C)c(O)c(C(C)(C)C)c1` belongs “inactive”; to `CC(C)C(=O)C(C)C`, “inactive”; to `CCC(C)(O)CCC=C(C)C` (centres undefined), “inactive”. On the same count and under the same terms, under `CCCOC(=O)c1ccc(C(=O)OCCC)nc1` stands “inactive”; under `COC(=O)CC(=O)OC`, “inactive”. On the same count and under the same terms, under `O=C(O)CC(C(=O)O)C(CC(=O)O)C(=O)O` (centres undefined) stands “inactive”; under `CCCCCCCCCOC(C)=O`, “inactive”; under `CN(C)c1cccc(O)c1`, “inactive”. Regarding `CCCOCCC`, the compound was classed as inactive. On the same count and under the same terms, to `Cc1ccc2c(c1)C(=O)OC2=O` belongs “inactive”. In the case of `C/C=C/C=C/CCCCCCCO`, the AC50 is active: 31.5 µM.

Regarding `CCCCCCCCCCCCCCOS(=O)(=O)O`, the outcome was inactive. Regarding `Cc1ccc(S(N)(=O)=O)cc1`, the outcome was inactive.

For the origin of these results see PubChem BioAssay (EPA / NIEHS).
